In PMC10685803 (RSC Chemical Biology, 2023):

Molecular target: SUMO−1 (residues 1–97 hSUMO1) (human, UniProt P63165 1-97)
Assay: NMR titration

Kd: ~22 µM
B1: ^15N-NSIM-DHB_(DAXX)/FAM-SPEP7 complex (pre-formed, saturated) (complex)
chain: MATANSIIVLDDDDEDEAAAQPGPSHPLPNAASPGAEAPSSSEPHGARGSSSSGGKKCYKLENEKLFEEFLELCKMQTADHPEVVPFLYNRQQRAHSLFLASAEFCNILSRVLSRARSRPAKLYVYINELCTVLKAHSAKKKLN
modifications: FAM on the N-terminus; hydrocarbon staple i,i+7 (R8 to S5), positions in Fig. 4C
